# Measured affinities in a library of Ab-14 light chain variants

Values reported by Li et al. 2023, doi:10.1038/s41467-023-39022-2 (FLAb copy).

Target peptide (SARS-CoV-2 spike, HR2 region): PDVDLGDISGINAS

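The variants were designed computationally from a first round of random CDR variants and then made and measured. Several design methods are mixed in this list. The assay is AlphaSeq: two haploid yeast populations carry antibody and antigen on their surface. After mating in shaken culture at 30 °C for 16 h, diploids were selected and their barcode pairs sequenced. The ratio of observed to expected reads was calibrated, replicate by replicate, on BCL2-family standards whose Kd was known from biolayer interferometry. There are six technical replicates.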

Each scFv is VH, a 15-residue (Gly4Ser)3 linker, VL, as in the parent Ab-14, and differs from it in the CDRs of the light chain only.
VH: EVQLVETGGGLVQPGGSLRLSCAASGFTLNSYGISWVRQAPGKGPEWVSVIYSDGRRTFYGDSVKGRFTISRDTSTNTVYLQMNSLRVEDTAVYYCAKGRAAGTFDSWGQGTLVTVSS
VL: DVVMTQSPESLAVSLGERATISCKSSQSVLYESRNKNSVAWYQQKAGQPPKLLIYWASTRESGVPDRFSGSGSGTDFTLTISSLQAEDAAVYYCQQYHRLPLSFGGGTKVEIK

The parent's light chain CDRs are KSSQSVLYESRNKNSVA, WASTRES, QQYHRLPLS; each variant's own CDRs replace them letter for letter. Values are log10 of the apparent Kd in nM; lower means stronger binding. A mean of the replicates is given; it leaves out those without a signal. "not detected" marks a missing value. The strain was present, yet no cells mated with the target were sequenced in any replicate, which points to weak or no binding. The authors' rule: three or more of the six replicates give a measured affinity, fewer mean a poor binder.

mean log10 Kd (nM),replicates with signal,CDR-L1,CDR-L2,CDR-L3
not detected,0 of 6,KSSQSVLAESREKNSVA,WASTRES,NQYHRLPLS
not detected,0 of 6,KMSQSVLYESRNKNSVA,WAMTRES,QQTHRLPLS
not detected,0 of 6,MLSQMWALGMKAKNSVA,QAQMRFN,QQYERLPLI
0.01,6 of 6,KVPQSNLYEARNANNVA,SASTRLS,QQYHRLPLS
1.74,4 of 6,KSGQSVLYESTNMNSVA,WASTRES,QQYHRLPLS
-0.45,6 of 6,KLMQSGLYESRNKNSVA,NASQRES,QQYHRLPLS
-0.07,6 of 6,SIGGHMKSLSAHINSVA,DMTNRED,QQYDRLPLS
0.07,6 of 6,KLSQSWEYESRNKNSVA,NASQREQ,QQYHRLPLS
0.35,6 of 6,KFIQIDLYESRNKNSVA,QASTRES,QQYHRLPLS
1.02,6 of 6,NIVGRVEDNQTENNAIA,DMHCRAG,QQYSRLPLS
-0.08,6 of 6,KLHQSVLYESRNKNSVA,NASQRES,QQYHRLPLS
1.71,6 of 6,MFSSLMEYGQRYKNSVA,QASVREN,QQYHWLPLS
2.15,5 of 6,MIHESYGLMQVKQSSIA,DNSTREE,QQYDRLPLS
not detected,0 of 6,RASQSVLYESRNKNSVA,WASTRES,QQYKRLALS
0.05,6 of 6,KSSMSELYESRNKNSVA,GASTRES,QQYHRLPLS
not detected,0 of 6,YLSMMEQHLGDMMHNVA,DANVAKM,QDYFRLPLM
0.78,6 of 6,KLMQVTGYESYVRNSVA,QMSTRAE,QDYNRLPLS
0.05,6 of 6,KLQQSVLYESRNKNSVA,NASTRMD,QQYHRLPLS
-0.35,6 of 6,KFSQSVLYESRNKNSVA,DASTRLS,QQYHRLPLS
1.22,6 of 6,SLGLVTMLEYAERNNVA,NNSTRED,QQYDRLPLS
2.82,2 of 6,KSSQSHLYESRNTNSVA,WASHRES,QQYHILPLS
0.30,6 of 6,KSSQSVLPESFNKNSVA,AASTRES,QQYHRLPLS
0.16,6 of 6,KLGQSVAMTSRAKNNVA,DLNERER,QQYHRLPLS
2.54,2 of 6,KFSQSVLYESRNKNSVA,RASTRES,QQYHRLHNS
0.02,6 of 6,KLPQSELYESRMKNSVA,NASTRES,QQYHRLPLS
1.85,3 of 6,MLKMENEEFNFDKNSVA,EAVEKES,QQYHRLPIT
1.60,6 of 6,KSSQSVLYESRNTNSVA,WASTRES,QQYHRLPLS
0.24,6 of 6,KLPQSQLYESRNKNSVA,AASTRES,QQYHRLPLS
0.52,6 of 6,HMSMLTLTGMRQKNSVA,QMTTREN,QQYDRLPLV
0.80,6 of 6,MMSQVTGLGQRHRNNVA,QTSMRET,QQYDHLPLI
0.59,6 of 6,KLSQSVLYESENKNSVA,WASTRNS,QQYHRLPLS
not detected,0 of 6,KSSQSVLYESRNKNNVA,HASTRED,QQYARLPLS
-0.16,6 of 6,KLSQSVLYESRNKNSVA,NASTREM,QQYHRLPLM
-0.32,6 of 6,KLSQSVLYESRNKNNVA,EASTRES,QDYHRLPLS
0.59,6 of 6,KLSQSVLYESRNKNSVA,KASTKER,QQYARLPLS
0.10,6 of 6,KVSQSELYESRNKNSVA,DASTRES,QQYHRLPLS
0.66,6 of 6,KSPFSVYYGDRNKMSVA,SASTRES,QQYHRLPLS
2.01,3 of 6,KDSQSVLYESREKNSVA,WASTRES,QQYGRLPLS
0.28,6 of 6,QLEVFPLQGMSTTQSIA,DASHRTP,QQYSRLPLV
0.35,6 of 6,KLPQKYNYESRNKNNVA,SASCRES,QQYHRLPLS
0.57,6 of 6,KSSGSVLFQSRNKNSVA,DASTRES,QQYHRLPLS
0.41,6 of 6,KINERMRMGENQQHSIA,NAATIVK,QQYHNLPLG
1.00,6 of 6,MLSQMWALGMKVSNSVA,QASMRFN,QQYDRLPLV
not detected,0 of 6,QIAMQMYHGLNDNQNIA,DAMTYIK,QQYSRLPLF
0.33,6 of 6,KISGMYQKESKNKNNVA,EMVNRES,QQYDRLPLS

As a blank, each scFv also met three strains without target: over all light chain designs, 4% of these pairings were detected, typically at 2.64 and seldom below 1.59. The range of this assay differs from that of the first round, and the authors advise against merging the two.